Each structure is given as a SMILES string. The list shows a part of the results, in another mix than the full data. Some salts and complexes are drawn in separate pieces, as the source files them; their charges need not balance. Activity calls are given as the source filed them. Calls come from the whole dose curve; as a rule, active = well fitted cell-killing curve with a large enough effect; inactive = no such curve, though single readings can be large or run the other way.

The assay in a line: qHTS for Inhibitors of TGF-b: Cytotox Counterscreen. As to conditions: HepG2 CAGA-GFP viability, ATP luminescence, 18 h; at 46.1 µM (top of the series). From the text:
TGF-b is a main component in the TGF-b signaling pathway which plays diverse roles in cellular and development pathways. TGF-b is mediated by transcription factors called "Smads". Although the Smad-dependent pathway is the primary canonical TGF-b signaling mode, TGF-b1 can also activate alternative signaling pathways, including those involving MAPK (ERK, JNK and p38). This interaction may mediate or enhance Smad-dependent responses, or can exert Smad-independent effects. The complexity of this signaling cascade allows the TGF-b superfamily to perform unique, overlapping or redundant functions. We believe that targeting the TGF-beta pathway at the Smad-transcription factor level may eliminate the consequences of disrupting the entire pathway and offer specificity without affecting other signaling pathways. Smad3 is the primary transducer of TGF-b's signals and Smad3 regulates many functions attributed to TGF-b signaling. We hypothesize that Smad3 inhibitors will selectively eliminate Smad3-specific TGF-beta signals without undesired off-target effects. We aim to identify Smad3-small molecule antagonists using a quantitative high throughput screening (qHTS) approach.
A high-throughput assay was developed to screen the NIH Molecular Libraries Small Molecule Repository (MLSMR). This is a cell based assay, where TGF-b is tagged with GFP. This is a counterscreen that evaluates the cytotoxicity of the compounds that were screened in the primary cell-based screen (AID 588855).
MH087449NIH Chemical Genomics Center [NCGC]
NIH Molecular Libraries Probe Centers Network [MLPCN]
Assay Submitter (PI): Sushil Rane, National Institute of […]
Suspensions of trypsinized HEPG2 CAGA-GFP cells were dispensed into white, tissue culture-treated, solid 1536-well plates at 5uL/well (1000 cells/well final concentration) in DMEM medium supplemented with 1% FBS. Plates were incubated at 37 degrees C for 2 hours, after which 23 nL of compounds or DMSO were delivered to each well using a pin tool. One uL of recombinant TGF-beta in DMEM (1% FBS) was then dispensed (500 pg/mL final concentration), and plates were incubated at 37 degrees C for 18 hours. Two uL of CellTiter Glo (Promega), a luminescence-based viability reagent, was dispensed, followed by a 10 minute room temperature incubation. The plates were then measured on a PerkinElmer ViewLux plate reader for luminescence (clear filter) using a 5 second exposure. The %Activity was determined from the corrected luminescence values. Wells containing media only (no cells) were used to normalize %Activity of identified toxic compounds; media-only wells corresponded to 100%Activity (complete cell-killing), while DMSO-dosed cell controls were used to normalize 0%Activity (no toxicity).
Concentration-response curves were fitted to the signals arising from the resulting luminescence. The concentration-effect curves were then classified based on curve quality (r2), response magnitude and degree of measured activity, and compounds were subsequently categorized based on their curve class.
For orientation: Quantitative high-throughput screening tests each substance at several concentrations.
`CC(C)(C)OC(=O)N1CCC(N(C(=O)c2ccccc2)c2ccc(F)cc2)CC1`: the activity change, negative = cytotoxicity is inactive: 7.93%.

For `COc1ccc(C(=O)NCC2(N3CCCCC3)CCCCC2)c(OC)c1OC`, the activity change, negative = cytotoxicity was inactive: 0.481%.

For `O=C(NCC1(N2CCCCC2)CCCCC1)c1ccc(=O)[nH]c1`, the activity change, negative = cytotoxicity is inactive: 6.49%.

For the compound `CCCCn1nnnc1C(c1cccs1)N1CCC(n2c(=O)[nH]c3ccccc32)CC1` (configuration not stated), the activity change, negative = cytotoxicity is inactive: -12.2%.

Take `O=C(NCC1(N2CCCCC2)CCCCC1)c1cccs1`: the activity change, negative = cytotoxicity is inactive: 28.4%.

Consider `CCCCn1nnnc1C(CC)N1CCC(n2c(=O)[nH]c3ccccc32)CC1` (configuration not stated), for which the activity change, negative = cytotoxicity was inactive: 5.96%.

As for `CSc1ccccc1C(=O)NCC1(N2CCCCC2)CCCCC1`, the activity change, negative = cytotoxicity is inactive: -25.4%.

As to `Cc1cccc(NC2(C#N)CCN(Cc3ccccc3)CC2)c1`, the activity change, negative = cytotoxicity is inactive: -2.22%.

As to `O=c1[nH]c2ccccc2n1C1CCN(C(c2ccccc2OC(F)(F)F)c2nnnn2C2CCCCC2)CC1` (configuration not stated), the activity change, negative = cytotoxicity is inactive: -14.5%.

On to `O=C(NCC1(N2CCCCC2)CCCCC1)c1ccc(Cl)nc1`, for which the activity change, negative = cytotoxicity was inactive: 9.57%.

For the compound `Cc1cc(C)cc(N(C(=O)c2ccccc2)C2CCN(C(=O)OC(C)(C)C)CC2)c1`, the activity change, negative = cytotoxicity was inactive: -21.2%.

In the case of `O=C(NCC1(N2CCOCC2)CCCCC1)c1cc2ccccc2o1`, the activity change, negative = cytotoxicity is inactive: -30.5%.

With `O=c1[nH]c2ccccc2n1C1CCN(C(c2cc3ccccc3o2)c2nnnn2C2CCCCC2)CC1` (configuration not stated), the activity change, negative = cytotoxicity is inactive: -1.17%.

As to `O=C(OC1CN2CCC1CC2)C1c2ccccc2Oc2ccccc21` (configuration not stated), the activity change, negative = cytotoxicity is inactive: -7.94%.

Take `N#CC1(Nc2ccccc2)CCN(Cc2ccccc2)CC1`: the activity change, negative = cytotoxicity was inactive: -28.6%.

For the compound `O=C(NCC1(N2CCCCC2)CCCCC1)c1ccc(Cl)s1`, the activity change, negative = cytotoxicity is inactive: -13.8%.

As for `O=C1C(O)=C([N+](=O)[O-])C(=O)C(O)=C1[N+](=O)[O-]`, the activity change, negative = cytotoxicity was inactive: 23.5%.

With `COc1ccc(Cl)cc1C(=O)NCC1(N2CCOCC2)CCCCC1`, the activity change, negative = cytotoxicity is inactive: -2.1%.

For the compound `CCOC(=O)N1CCC(Nc2ccc(OC)cc2)CC1`, the activity change, negative = cytotoxicity is inactive: -3.28%.

As to `CC(C)c1ccc(NC2CCN(C(=O)OC(C)(C)C)CC2)cc1`, the activity change, negative = cytotoxicity was inactive: 0.814%.

Consider `CCCCn1nnnc1C(c1ccccc1OC(F)(F)F)N1CCC(n2c(=O)[nH]c3ccccc32)CC1` (configuration not stated), for which the activity change, negative = cytotoxicity is inactive: -1.84%.

Consider `COc1ccc(CN(CCCl)CCCl)cc1Cl`, for which the activity change, negative = cytotoxicity was inactive: 7.69%.

For `CN(C)c1cccc(C(=O)NCC2(N3CCCCC3)CCCCC2)c1`, the activity change, negative = cytotoxicity was inactive: -11.5%.

Turning to `O=[N+]([O-])c1cc([N+](=O)[O-])c(OC2CCCCC2O)c([N+](=O)[O-])c1` (configuration not stated), the activity change, negative = cytotoxicity was inactive: 28.2%.

On to `COc1cc(OC)c(C(=O)NCC2(N(C)C)CCCCC2)cc1OC`, for which the activity change, negative = cytotoxicity is inactive: 0.86%.

Regarding `CCC(c1nnnn1C(C)(C)C)N1CCC(n2c(=O)[nH]c3ccccc32)CC1` (configuration not stated), the activity change, negative = cytotoxicity was inactive: -2.93%.

For the compound `O=C(NCC1(N2CCOCC2)CCCCC1)c1cc(F)c(F)cc1Cl`, the activity change, negative = cytotoxicity was inactive: -9.34%.

Regarding `CCCCn1nnnc1C(c1ccnc2ccccc12)N1CCC(n2c(=O)[nH]c3ccccc32)CC1` (configuration not stated), the activity change, negative = cytotoxicity is inactive: -10.1%.

For the compound `O=C(OC1CN2CCC1CC2)c1ccc([N+](=O)[O-])cc1` (configuration not stated), the activity change, negative = cytotoxicity is inactive: -12.8%.

With `COc1ccc2c(c1O)-c1c(O)c(OC)cc3c1[C@H](C2)[N+](C)(C)CC3.O=[N+]([O-])c1cc([N+](=O)[O-])c([O-])c([N+](=O)[O-])c1[O-]`, the activity change, negative = cytotoxicity was inactive: 18.1%.

For `O=C(NCC1(N2CCCCC2)CCCCC1)c1cncc(Br)c1`, the activity change, negative = cytotoxicity is inactive: -21.7%.

For `CN1CCC(Nc2cccc(F)c2)CC1`, the activity change, negative = cytotoxicity is inactive: -2.75%.

Regarding `COc1ccc(C(c2nnnn2C2CCCC2)N2CCC(n3c(=O)[nH]c4ccccc43)CC2)cc1` (configuration not stated), the activity change, negative = cytotoxicity is inactive: 4.85%.

As for `Cc1ccc(C(=O)NCC2(N(C)C)CCCCC2)o1`, the activity change, negative = cytotoxicity is inactive: 1.96%.

Turning to `CCCCOc1ccccc1C(=O)NCC1(N2CCOCC2)CCCCC1`, the activity change, negative = cytotoxicity is inactive: -17.4%.

With `CCCOc1ccc(C(=O)NCC2(N(C)C)CCCCC2)cc1OC`, the activity change, negative = cytotoxicity is inactive: -4.46%.

In the case of `O=C(NCC1(N2CCOCC2)CCCCC1)c1ccccc1Br`, the activity change, negative = cytotoxicity is inactive: -18.2%.

In the case of `O=C(NCC1(N2CCCCC2)CCCCC1)c1ccc(OC(F)F)cc1`, the activity change, negative = cytotoxicity was inactive: -2.11%.

Take `CCN1CCC(Nc2ccc(Cl)cc2)CC1`: the activity change, negative = cytotoxicity is inactive: 5.12%.

In the case of `N#CC1(Nc2ccccc2)CCN(CCc2ccccc2)CC1`, the activity change, negative = cytotoxicity is inactive: -2.18%.

As for `O=c1[nH]c2ccccc2n1C1CCN(C(c2ccccc2OC(F)(F)F)c2nnnn2C2CCCC2)CC1` (configuration not stated), the activity change, negative = cytotoxicity is inactive: 13.3%.

Take `CSc1ccc(C(=O)NCC2(N3CCOCC3)CCCCC2)cc1`: the activity change, negative = cytotoxicity was inactive: -15%.

With `CCOc1ccc(C(=O)NCC2(N3CCOCC3)CCCCC2)cc1`, the activity change, negative = cytotoxicity is inactive: -10.2%.

Consider `O=C(NCC1(N2CCCCC2)CCCCC1)c1cccc([N+](=O)[O-])c1`, for which the activity change, negative = cytotoxicity is inactive: -6.5%.

As to `O=C(NCC1(N2CCCCC2)CCCCC1)c1cccc(C(F)(F)F)c1`, the activity change, negative = cytotoxicity was inactive: -3.02%.

As for `CCCOc1cccc(C(=O)NCC2(N3CCOCC3)CCCCC2)c1`, the activity change, negative = cytotoxicity is inactive: 6.58%.

Regarding `O=C(NCC1(N2CCOCC2)CCCCC1)c1cc(=O)[nH]c2ccccc12`, the activity change, negative = cytotoxicity was inactive: 2.46%.

As to `COc1cc(C(=O)NCC2(N3CCCCC3)CCCCC2)ccc1OC(F)F`, the activity change, negative = cytotoxicity was inactive: -4.53%.

As for `CCCCn1nnnc1C(c1cccc2ccccc12)N1CCC(n2c(=O)[nH]c3ccccc32)CC1` (configuration not stated), the activity change, negative = cytotoxicity is inactive: 1.4%.

Consider `CC(C)c1ccc(C(=O)NCC2(N3CCOCC3)CCCCC2)cc1`, for which the activity change, negative = cytotoxicity was inactive: -25.8%.

Turning to `COc1ccc(NC2CCN(C(=O)OC(C)(C)C)CC2)cc1`, the activity change, negative = cytotoxicity is inactive: -27.9%.

As to `CN1CCN(CCOC(=O)C(O)(c2ccccc2)c2ccccc2)CC1`, the activity change, negative = cytotoxicity is inactive: 37.5%.

Source of the values: PubChem BioAssay AID588856 (National Center for Advancing Translational Sciences (NCATS), 2011).
